Measurements taken from patent US5863776A, “Method of preparing apoenzyme” (Research Development Foundation, priority 1996, dated 1999).

Protein sequences, listed by entry. Tags and fused reporters are not part of them.
UniProt P27338, whole entry: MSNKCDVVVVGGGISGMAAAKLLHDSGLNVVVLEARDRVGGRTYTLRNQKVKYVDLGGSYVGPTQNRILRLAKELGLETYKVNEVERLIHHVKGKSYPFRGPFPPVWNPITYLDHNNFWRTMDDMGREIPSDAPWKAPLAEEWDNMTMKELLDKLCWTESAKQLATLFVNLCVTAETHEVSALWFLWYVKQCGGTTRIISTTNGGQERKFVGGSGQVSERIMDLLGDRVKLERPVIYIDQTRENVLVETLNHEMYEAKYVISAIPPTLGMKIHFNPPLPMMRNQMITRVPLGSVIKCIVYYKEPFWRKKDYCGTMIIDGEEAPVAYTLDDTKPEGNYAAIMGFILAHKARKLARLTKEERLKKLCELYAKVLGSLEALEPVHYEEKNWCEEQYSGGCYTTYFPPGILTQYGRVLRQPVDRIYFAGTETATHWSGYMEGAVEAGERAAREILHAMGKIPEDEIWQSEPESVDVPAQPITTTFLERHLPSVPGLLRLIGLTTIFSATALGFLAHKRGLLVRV

Target: T1, MAO B (Homo sapiens, UniProt P27338)
T1 construct: expressed in transfected cells; host or cells: COS-7 (African green monkey), riboflavin-containing (Rib+) or riboflavin-depleted (Rib-), transient electroporation
Experiment: MAO B enzymatic activity in COS-7 cells during riboflavin depletion
Assay type: cell-based
Description: Mammalian COS-7 cells were grown in Dulbecco's Modified Eagle Medium (DMEM, Gibco) supplemented with 10% fetal bovine serum (FBS, Gibco) at 37° C. with 5% CO2. Since this medium (DMEM+10% FBS) contains riboflavin, COS-7 cells grown in this medium were defined as riboflavin-containing COS-7 cells (Rib^+ COS-7 cells). MAO B holoenzyme was obtained by expressing MAO B cDNA in Rib^+ COS-7 cells. Mammalian COS-7 cells were also grown in riboflavin-free medium (riboflavin-free DMEM+10% dialyzed FBS, Gibco) at 37° C. with 5% CO2, with fresh riboflavin-free medium changed every 48-72 hours. COS-7 cells grown in riboflavin-free medium for longer than 100 days were defined as riboflavin-depleted (Rib^-) COS-7 cells. Apo-MAO B was obtained by expressing MAO B cDNA in Rib^- COS-7 cells. COS-7 cells were grown in riboflavin-free medium for greater than 5 months without any detectable change in morphology.
Wild-type or mutant MAO B cDNAs were transiently transfected into COS-7 cells by electroporation (23) as previously described (18). Briefly, Rib^+ - or Rib^- COS-7 cells were harvested during late log phase growth and resuspended to a concentration of 3.1×10^6 cells/ml in either riboflavin-containing or riboflavin-free medium, respectively. Wild-type or mutant MAO B cDNAs ([…]) were added to 0.8 ml of cell suspension. […] Electroporation was carried out in a Bio-Rad Gene Pulser with a setting of 250 V and 500 μF. Cells were resuspended in 15 ml of riboflavin-containing or riboflavin-free medium and incubated at 37° C. with 5% CO2. Transfected COS-7 cells were harvested at 48 hours and homogenized in a lysis solution containing 20 mM Tris-HCl, 1 mM EDTA, 0.5 mM PMSF, pH 8.0. The homogenate was diluted with an equal volume of the same buffer supplemented with 300 mM NaCl to obtain a 150 mM final NaCl concentration. Triton X-100 (Pierce) was added to the lysate to give a final concentration of 0.25%, and the samples were allowed to stir for 50 min. at 4° C. to extract MAO B from the outer mitochondrial membrane. After Triton extraction, the lysate was centrifuged at 1300×g for 5 min. at 4° C. to remove insoluble cell debris.
MAO B activity was assayed radiometrically by a modification of the method of Wurtman and Axelrod (26) as described previously (18). Briefly, the reaction mixture contained 200 μl of 50 mM sodium phosphate buffer (pH 7.4), 3.6 nmole of 55 mCi/mmol [^14 C] benzylamine hydrochloride (Amersham), 10 nmoles of unlabeled benzylamine and 10 μl of cell lysate. […] The reaction product was extracted with 500 μl of toluene, and an aliquot (200 μl) of the organic phase from each sample was counted in liquid scintillation fluid (Bio-Safe) in a Beckman LB 3801 scintillation counter. […]

[1] = COS-7 cells grown in riboflavin-free medium for 76 days

monoamine oxidase B [MAO B]
% of holo-MAO B enzymatic activity [1]: 12.7% | Enzymatic activity [1]: 0.14 μmol/minute/mg MAO B | % of holo-MAO B enzymatic activity (Rib^+ COS-7): 100% | Enzymatic activity (Rib^+ COS-7): 1.10 μmol/minute/mg MAO B
